Measurements from patent publication US11111251B2, “Positive allosteric modulators of the muscarinic acetylcholine receptor M1” (Vanderbilt University, priority 2016, dated 2021).

Protein sequences, listed by entry. Tags and fused reporters are not part of them. Lines headed by an entry give the natural chain unless they say otherwise; changes in a name come on top.
UniProt P11229: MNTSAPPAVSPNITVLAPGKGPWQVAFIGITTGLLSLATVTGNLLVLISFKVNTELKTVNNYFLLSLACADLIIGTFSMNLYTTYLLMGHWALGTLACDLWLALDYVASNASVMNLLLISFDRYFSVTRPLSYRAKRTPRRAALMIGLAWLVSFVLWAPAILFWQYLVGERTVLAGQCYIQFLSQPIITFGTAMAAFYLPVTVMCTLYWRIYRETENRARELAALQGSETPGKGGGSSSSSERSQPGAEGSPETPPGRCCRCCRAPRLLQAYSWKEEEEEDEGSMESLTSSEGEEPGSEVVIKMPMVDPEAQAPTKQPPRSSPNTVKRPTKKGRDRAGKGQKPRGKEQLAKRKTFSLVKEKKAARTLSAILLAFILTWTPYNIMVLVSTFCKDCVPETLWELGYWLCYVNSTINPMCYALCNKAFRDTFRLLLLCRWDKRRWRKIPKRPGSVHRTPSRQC

Molecular target: human mAChR M1 (Homo sapiens, UniProt P11229)
Experiment: mAChR M1 cell-based functional assay: calcium mobilization, positive allosteric modulator mode (increase in EC20 acetylcholine response)
Conditions: Table 2
Source text: a. Cell Lines Expressing Muscarinic Acetylcholine Receptors
Chinese hamster ovary (CHO-K1) cells stably expressing rat (r)M1 were purchased from the American Type Culture Collection and cultured according to their indicated protocol. CHO cells stably expressing human (h)M2, hM3, and hM5 were described previously (Levey, et al., 1991); hMi and hM4 cDNAs were purchased from Missouri S&T cDNA Resource; rM4 cDNA was provided by T. I. Bonner (National Institutes of Health, Bethesda, Md.). rM2 and rM3 were cloned from a rat brain cDNA library and sequence verified. hMi, rM2, rM3, hM4, and rM4 cDNAs were used to stably transfect CHO-K1 cells purchased from the American Type Culture Collection using Lipofectamine2000. […]
Calcium flux was measured using the Functional Drug Screening System (FDSS) 6000 (Hamamatsu Corporation, Tokyo, Japan) as an increase in the fluorescent static ratio. […] Agonist activity was analyzed as a concentration-dependent increase in calcium mobilization upon compound addition. Positive allosteric modulator activity was analyzed as a concentration-dependent increase in the EC20 acetylcholine response. Antagonist activity was analyzed as a concentration-dependent decrease in the EC80 acetylcholine response. […]

“N-[(1S,2S)-2-hydroxycyclohexyl]-7-(4-[(4-2-ylphenyl)methyl]thieno[3,2-b]pyridine-5-carboxamide [Compound 295]” gave an EC50 of 52.5 nM.
